Here are results for 1 compound from publication PMC6327999, “Hydroxyl-substituted double Schiff-base condensed 4-piperidone/cyclohexanones as potential anticancer agents with biological evaluation” (Journal of Enzyme Inhibition and Medicinal Chemistry, 2019).

Common to all, as to format: cell-based
Test [1] concerns human lung carcinoma cells (A549). Put plainly: Cytotoxicity, MTT assay, A549. The following applies: quotient of the IC50 values towards nonmalignant LO2 cells. The source says:
(§1) Compounds 2a–d, 3a–e, 4a–e, 5a–d, and 6a–c were screened against human neoplastic cell lines such as human lung carcinoma cells (A549), human gastric adenocarcinoma cells (SGC7901), human cervical carcinoma cells (HeLa), human liver hepatocellular carcinoma cell line (Hepg2), human chronic myelogenous leukemia cell line (K562), human acute mononuclear granulocyte leukemia (THP-1), human normal heptical cell line (LO2) (Table 1) using modified MTT assay (3-(4,5-dimethyl-2-thiazolyl)-2,5-diphenyl-2-H-tetrazolium bromide, MTT, Dojindo Laboratories, Tokyo, Japan). All cell lines were maintained at 37 °C in a humidified 5% CO2 and 95% air atmosphere. The HePG2 cell lines were cultured in DMEM containing 10% fetal bovine serum. Other cell lines were grown in medium 1640 and supplemented with 10% fetal bovine serum. The tested compounds and positive controls (Doxorubicin and Curcumin) were initially dissolved in dimethylsulfoxide (DMSO), and then the solutions were diluted 1:1000 in DMEM medium or 1640 medium, which final concentration of DMSO was always 0.1% (v/v). Controls were prepared with 0.1% DMSO (v/v) only. […] The optical density (OD) was measured by a multi-well plate reader (TECAN, Männedorf, Switzerland) at 570 nm. The results are expressed as a decrease in the cell viability (%) in comparison to untreated controls. […]
(In general: Tetrazolium dyes change colour on reduction, which living cells bring about.)

In test [2] the test system is human gastric adenocarcinoma cells (SGC7901). Put plainly: Cytotoxicity, MTT assay, SGC7901. The following applies: quotient of the IC50 values towards nonmalignant LO2 cells.
Excerpt: as §1

For test [3], the system named is human liver hepatocellular carcinoma cell line (Hepg2). Nature of the test: Cytotoxicity, MTT assay, HePG2. Particulars: quotient of the IC50 values towards nonmalignant LO2 cells.
Excerpt: as §1

The subject of test [4] is human cervical carcinoma cells (HeLa). Nature of the test: Cytotoxicity, MTT assay, HeLa. Particulars: quotient of the IC50 values towards nonmalignant LO2 cells.
Excerpt: as §1

Test [5] has as its system human chronic myelogenous leukemia cell line (K562). Nature of the test: Cytotoxicity, MTT assay, K562. Particulars: quotient of the IC50 values towards nonmalignant LO2 cells.
Excerpt: as §1

In test [6] the test system is human acute mononuclear granulocyte leukemia (THP-1). Nature of the test: Cytotoxicity, MTT assay, THP-1. The following applies: quotient of the IC50 values towards nonmalignant LO2 cells.
Excerpt: as §1

Test [7] relates to human carcinoma cell lines A549, SGC7901, HePG2, HeLa, K562, THP-1. Nature of the test: Cytotoxicity, MTT assay, panel of human carcinoma cell lines (average / overall). Particulars: average over the six carcinoma cell lines.
Excerpt: as §1, with “serum.” for “serum. The tested compounds and positive controls (Doxorubicin and Curcumin) were initially dissolved in dimethylsulfoxide (DMSO), and then the solutions were diluted 1:1000 in DMEM medium or 1640 medium, which final concentration of DMSO was always 0.1% (v/v). Controls were prepared with 0.1% DMSO (v/v) only.”
The cytotoxicity activities against human carcinoma cell lines A549, SGC7901, HePG2, HeLa, K562, THP-1 and cytotoxicity toward LO2 cell lines were evaluated by MTT method. […]

`COc1cccc2c1C(=O)c1c(O)c3c(c(O)c1C2=O)C[C@@](O)(C(=O)CO)C[C@@H]3O[C@H]1C[C@H](N)[C@H](O)[C@H](C)O1` [DOX, Doxorubicin, reference compound]: the “A549 SI” value in test [1] turned out to be 1.6. Also, in test [2], the “SGC7901 SI” value came to 0.9. The “HePG2 SI” value in test [3] was found to be 10.4. In addition, the “HeLa SI” value in test [4] worked out at 2.9. In addition, the “K562 SI” value in test [5] is reported as 3.9. Besides, the “THP-1 SI” value in test [6] is reported as 12.8. In test [7], the “Ave SI” value is reported as 5.4.
